The experiment addresses recombinant N-terminal PMS2 (residues 1-365) (Homo sapiens, UniProt P54278). In words: Fluorescence Polarisation Assay for PMS2 (displacement of fluorescent probe compound). The conditions noted are these: read-out: PMS2 IC50, 10 nM N-terminal PMS2, 5 nM probe compound, pH 7.5, room temperature, 30 min pre-incubation then 1 hour. On the procedure: Fluorescence Polarisation Assay for PMS2
Test compounds, as 10 mM DMSO stocks, were dispensed into a Black Fluotrac 200 384 well medium binding plate (Greiner Bio-One, item number 781076) using a Labcyte Echo acoustic liquid handler. For single point screening, test compounds were added to wells in columns 1-22 whilst DMSO was added to wells in columns 23 and 24 in order to normalise the plate. For potency determination, serial dilutions of test compounds were added to wells in columns 3-22 and DMSO volume was normalised across the plate.
20 μL of a 2× solution (20 nM) of recombinant N-terminal PMS2 (residues 1-365) in assay buffer (25 mM HEPES, pH 7.5, 250 mM NaCl, 10 mM MgCl2, 0.01% Triton X-100, 5 mM Dithiothreitol) was added to all wells in columns 2-23 for potency determination or columns 1-23 for single point screening. 20 μL assay buffer was added to all wells in columns 1 and 24 (column 24 only for single point screening) using a MultiDrop Combi (ThermoFisher). Plates were centrifuged for 1 minute at 250×g and were incubated at room temperature for 30 minutes prior to the addition of 20 μL of 2×(20 nM) of 5-((5-(4-((2-(2,4-dihydroxy-5-isopropylbenzoyl)isoindolin5-yl)methyl)piperazin-1-yl)pentyl)carbamoyl)-2-(6-(dimethylamino)-3-(dimethyliminio)-3H-xanthen-9-yl)benzoate (referred to hereinafter as “probe compound”) in assay buffer (prepared from a 100 μM DMSO stock) with a MultiDrop Combi (ThermoFisher). The final concentration of N-terminal PMS2 was 10 nM and the final concentration of probe compound was 5 nM.
Compound plates were centrifuged for 1 minute at 250×g for 1 minute and were incubated at room temperature for 1 hour before being read on a PheraStar FSX (fitted with 384-well aperture spoon and 540 590 590 FP optic module). The gain and focus were adjusted before each plate was read so that the polarisation of a no enzyme control (column 24) was equal to 35 mP. Data were normalised against the no inhibitor controls (column 23) and no enzyme controls (column 24).
(In general: Fluorescence polarisation rises when a labelled molecule tumbles more slowly, as on binding a larger partner.)

Sequences of proteins named here, by UniProt entry; tags and fusion partners are left off. Residues count along the entry.
UniProt P54278, 1-365 limits assumed: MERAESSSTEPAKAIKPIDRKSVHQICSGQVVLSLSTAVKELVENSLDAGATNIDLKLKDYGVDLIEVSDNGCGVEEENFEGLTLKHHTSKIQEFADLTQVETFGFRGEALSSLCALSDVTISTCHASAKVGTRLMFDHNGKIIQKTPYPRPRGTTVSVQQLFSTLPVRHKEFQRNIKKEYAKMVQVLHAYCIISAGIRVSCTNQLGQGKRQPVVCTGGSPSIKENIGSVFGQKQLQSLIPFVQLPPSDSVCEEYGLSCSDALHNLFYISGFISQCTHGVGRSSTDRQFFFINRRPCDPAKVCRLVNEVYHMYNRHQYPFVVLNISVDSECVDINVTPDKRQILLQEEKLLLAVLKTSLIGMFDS

Bounds are passed on as bounds.

In general, IC50 refers to the concentration that gives 50% inhibition.

Take `CC#CC(=O)N(C)c1cc2c(cc1OCCN(C)C)CCN(C(=O)c1cc(C(C)C)c(OC)cc1O)C2`: the IC50 is above 1000 nM.
Next, `COc1cc(O)c(C(=O)N2Cc3ccc(C)c(N(C)C(=O)/C=C/CN(C)C)c3C2)cc1C(C)(C)C`: 100 to 1000 nM; `Cc1cc(C(=O)N2Cc3cccc(NC(=O)/C=C/CN4CCOCC4)c3C2)c(O)cc1O`: 100 to 1000 nM.
Next, `C=CC(=O)N(C)c1cccc2c1CN(C(=O)c1cc(Cl)c(OC)cc1O)C2`: above 1000 nM; `COc1cc(O)c(C(=O)N2Cc3c(Cl)ccc(N(C)C(=O)/C=C/CN(C)C)c3C2)c(C)c1Cl`: 100 to 1000 nM.
Next, `COc1ccccc1C(=O)N1Cc2cccc(NC(=O)/C=C/CN(C)C)c2C1`: above 1000 nM.
As to `C=CC(=O)N(C)c1cc(OCCN(C)C)cc2c1CN(C(=O)c1cc(C)c(O)cc1O)C2`, the IC50 was below 100 nM.
Next, `COc1cc(O)c(C(=O)N2Cc3ccc(Cl)c(NC(=O)/C=C/CN(C)C)c3C2)cc1C(C)C`: 100 to 1000 nM; `C=CC(=O)N(C)c1cccc2c1CN(C(=O)c1cc(C(C)(C)C)c(O)cc1O)C2`: below 100 nM.
Next, `COc1cc(O)ccc1C(=O)N1Cc2cccc(NC(=O)/C=C/CN(C)C)c2C1`: above 1000 nM.
`COc1cc(O)c(C(=O)N2Cc3ccc(C)c(N(C)C(=O)/C=C/CN(C)C)c3C2)cc1C(C)C`: the IC50 lay within 100 to 1000 nM.
Next, “(E)-4-(Dimethylamino)-N-(2-(2-hydroxy-5-methylbenzoyl)isoindolin-4-yl)but-2-enamide”: above 1000 nM; `COc1cc(O)c(C(=O)N2Cc3ccc(Cl)c(N(C)C(=O)/C=C/CN(C)C)c3C2)cc1C(C)(C)C`: 100 to 1000 nM.
Next, `Cc1c(O)cc(O)c(C(=O)N2CCc3ccc(N(C)C(=O)/C=C/CN(C)C)cc3C2)c1C`: below 100 nM.
Next, `Cc1cc2c(c(N(C)C(=O)/C=C/CN(C)C)c1)CN(C(=O)c1c(O)cc(O)c(C)c1C)C2`: below 100 nM; `Cc1c(O)ccc(C(=O)N2Cc3ccc(Cl)c(NC(=O)/C=C/CN(C)C)c3C2)c1C`: 100 to 1000 nM; `Cc1cc(C(=O)N2Cc3cccc(NC(=O)/C=C/CN(C)C)c3C2)c(O)cc1O`: below 100 nM.
For `Cc1c(O)cc(O)c(C(=O)N2Cc3cccc(NC(=O)/C=C/CN(C)C)c3C2)c1C`, the IC50 was below 100 nM.
Next, `CN(C)C/C=C/C(=O)Nc1cccc2c1CN(C(=O)c1cc3cnoc3cc1O)C2`: above 1000 nM; `CCc1cc(C(=O)N2Cc3cccc(NC(=O)/C=C/CN(C)C)c3C2)c(O)cc1O`: below 100 nM.
For `CC(C)c1cc(C(=O)N2CCc3ccc(N(C)C(=O)/C=C/CN(C)C)cc3C2)ccc1O`, the IC50 was in the range of 100 to 1000 nM.
Next, `CC#CC(=O)Nc1cnc2c(c1)CN(C(=O)c1c(O)cc(OC)c(Cl)c1C)CC2`: above 1000 nM.
Next, `C=CC(=O)N(C)c1cc2c(cc1C)CCN(C(=O)c1cc(C(C)C)c(OC)cc1O)C2`: 100 to 1000 nM.
Next, `CC(C)c1cc(C(=O)N2Cc3cc(N(C)C(=O)/C=C/CN(C)C)ccc3CC2C)ccc1O` (centres unmarked): 100 to 1000 nM; `Cc1cc(O)cc(O)c1C(=O)N1Cc2cccc(N(C)C(=O)/C=C/CN(C)C)c2C1`: below 100 nM; `C=CC(=O)N(C)c1cccc2c1CN(C(=O)c1c(C)cc(O)cc1O)C2`: 100 to 1000 nM.
On to `C=CC(=O)Nc1cccc2c1CN(C(=O)c1cc(C(C)(C)C)c(O)cc1O)C2`, for which the IC50 is below 100 nM.
Next, `COc1cc(O)c(C(=O)N2Cc3cccc(N(C)C(=O)/C=C/CN(C)C)c3C2)cc1C`: above 1000 nM; `C=CC(=O)N(C)c1ccc2c(c1)CN(C(=O)c1cc(C(C)C)c(F)cc1O)CC2`: above 1000 nM.
`C=CC(=O)N(C)c1cc2c(cc1OCCN(C)C)CCN(C(=O)c1c(O)cc(OC)c(Cl)c1C)C2`: the 50% inhibitory concentration (IC50) was below 100 nM.
Next, `COc1cc(O)c(C(=O)N2Cc3cccc(NC(=O)/C=C/CN(C)C)c3C2)c(C)c1Cl`: below 100 nM; `Cc1c(O)cc(O)c(C(=O)N2Cc3ccc(Cl)c(N(C)C(=O)/C=C/CN(C)C)c3C2)c1C`: below 100 nM.
Next, `CN(C)C/C=C/C(=O)Nc1cccc2c1CN(C(=O)c1ccc(O)cc1Cl)C2`: above 1000 nM.
Next, `Cc1c(O)cc(O)c(C(=O)N2Cc3cccc(N(C)C(=O)/C=C/CN(C)C)c3C2)c1C`: below 100 nM; `Cc1c(O)cc(O)c(C(=O)N2Cc3cccc(N(CCc4ccccn4)C(=O)/C=C/CN(C)C)c3C2)c1C`: below 100 nM.
For `CN(C)C/C=C/C(=O)Nc1cccc2c1CN(C(=O)c1ccc(O)cn1)C2`, the IC50 is above 1000 nM.
As for `C=CC(=O)N(C)c1ccc(Cl)c2c1CN(C(=O)c1c(O)cc(OC)c(Cl)c1C)C2`, the half-maximal inhibitory concentration (IC50) fell in the range of 100 to 1000 nM.
On to `CCN(C(=O)/C=C/CN(C)C)c1cccc2c1CN(C(=O)c1c(O)cc(O)c(C)c1C)C2`, for which the half-inhibitory concentration (IC50) was below 100 nM.
Next, `COc1cc(O)c(C(=O)N2CCc3ccc(N(C)C(=O)/C=C/CN(C)C)cc3C2)cc1C(C)C`: 100 to 1000 nM.
On to `CN(C)C/C=C/C(=O)Nc1cccc2c1CN(C(=O)c1ccc(O)cc1O)C2` [Example 17], for which the 50% inhibitory concentration (IC50) is 100 to 1000 nM.
Next, `COc1cc(O)c(C(=O)N2Cc3cccc(N(C)C(=O)/C=C/CN(C)C)c3C2)c(C)c1Cl`: below 100 nM.
Next, `CN(C)C/C=C/C(=O)Nc1cccc2c1CN(C(=O)c1cc(C#N)c(O)cc1O)C2`: 100 to 1000 nM; `C=CC(=O)N(C)c1cc2c(cn1)CCN(C(=O)c1cc(C(C)C)c(OC)cc1O)C2`: 100 to 1000 nM; `C=CC(=O)N(C)c1cccc2c1CN(C(=O)c1cc(C(C)C)c(OC)cc1O)C2`: above 1000 nM.
As to `Cc1cc(O)cc(O)c1C(=O)N1Cc2cccc(NC(=O)/C=C/CN(C)C)c2C1`, the concentration for half-maximal inhibition (IC50) was below 100 nM.
In the case of `C=CC(=O)N(CCN1CCOCC1)c1cccc2c1CN(C(=O)c1cc(C)c(O)cc1O)C2`, the concentration for half-maximal inhibition (IC50) is below 100 nM.
With “(E)-N-(2-(2,4-Dihydroxybenzoyl) isoindolin-4-yl)-4-(diethylamino)-N-((1-methyl-1H-pyrazol-4-yl)methyl)but-2-enamide”, the half-inhibitory concentration (IC50) lay in the range of 100 to 1000 nM.
As for `C=CC(=O)N(C)c1cc2c(cc1Cl)CCN(C(=O)c1cc(C(C)C)c(OC)cc1O)C2`, the 50% inhibitory concentration (IC50) was 100 to 1000 nM.
Next, `CCN(C)C/C=C/C(=O)N(C)c1cccc2c1CN(C(=O)c1c(O)cc(O)c(Cl)c1C)C2`: below 100 nM.
Next, `CC(C)c1cc(C(=O)N2Cc3cccc(N(C)C(=O)/C=C/CN(C)C)c3C2)c(O)cc1O`: below 100 nM; `Cc1cc(C(=O)N2Cc3cccc(N(CCc4ccccn4)C(=O)/C=C/CN(C)C)c3C2)c(O)cc1O`: below 100 nM; `CN(C)C/C=C/C(=O)N(C)c1cccc2c1CN(C(=O)c1ccc(O)c(C(C)(C)C)c1)C2`: 100 to 1000 nM.
Consider `Cc1cc(C(=O)N2Cc3cccc(NC(=O)/C=C/CN4CCCC4)c3C2)c(O)cc1O`, for which the 50% inhibitory concentration (IC50) lay in the range of 100 to 1000 nM.
As to `Cc1cc(C(=O)N2Cc3cccc(N(CCC4CCOCC4)C(=O)/C=C/CN(C)C)c3C2)c(O)cc1O`, the IC50 was below 100 nM.
Next, `C=CC(=O)N(CCc1ccncc1)c1cccc2c1CN(C(=O)c1cc(C)c(O)cc1O)C2`: 100 to 1000 nM.
Next, `CN(C)C/C=C/C(=O)N(C)c1cccc2c1CN(C(=O)c1cc(C(C)(C)C)c(F)cc1O)C2`: above 1000 nM; `CN(C)C/C=C/C(=O)N(C)c1cccc2c1CN(C(=O)c1ccc(O)c(C(F)(F)F)c1)C2`: above 1000 nM.
Next, `CN(C)C/C=C/C(=O)N(Cc1ccccc1)c1cccc2c1CN(C(=O)c1ccc(O)cc1O)C2`: 100 to 1000 nM.
As to `C=CC(=O)N(C)c1ccc2c(n1)CN(C(=O)c1c(O)cc(OC)c(Cl)c1C)CC2`, the IC50 was below 100 nM.
